Test results as given in PubChem BioAssay AID2066 (NMMLSC, 2009).
This is a selection; strong and weak results do not stand in their true shares. Calls of active or inactive are those of the source.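 How the source made its calls: active means GFP response relative to DMSO above a set limit, near screen average plus 3 SD (cut at about 150% in these data); inconclusive means fewer than 70 cells counted for the yeast strain; inactive means the rest.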

Experiment: modulators of AGP1-GFP expression in yeast TOR pathway, primary screen, cell-based, multiplex flow cytometry, S. cerevisiae, MLPCN library (AID 2066);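 further: median GFP channel fluorescence of the gated AGP1 strain per well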
Settings: 3 h, at 10 µM, stronger effect = higher value, GFP as percent of DMSO wells

Row | Compound | GFP response vs DMSO
1 | CCOP(=O)(NC(=NC(C)c1ccccc1)NC(C)c1ccccc1)OCC (stereo unspecified) | inactive: 87.7%
2 | O=P1(Nc2ccccn2)COc2ccccc2OC1 | inactive: 102%
3 | CCC1=CC2Cc3nc4ccc(Cl)cc4c(N)c3C(C1)C2 (stereo unspecified) | inactive: 96%
4 | CN(CCCl)Cc1cc(Cl)c(NC2=NCCN2)c(Cl)c1 | inactive: 107%
5 | CCOP(=O)(Nc1ccc(C)cn1)OCC | inactive: 106%
6 | CC(C)(C)C(=O)NC(Sc1ncccn1)C(Cl)(Cl)Cl (stereo unspecified) | inactive: 100%
7 | Clc1n[nH]nc1-c1nn[nH][15n]1 | inactive: 102%
8 | COc1ccccc1CNC(=O)COC(=O)C(O)(c1ccccc1)c1ccccc1 | inactive: 97.3%
9 | CC(C)/C=N\N=C(\N)N[N+](=O)[O-] | inactive: 101%
10 | CN(C(=O)Cc1ccc(Cl)c(Cl)c1)[C@@H]1CCCC[C@H]1N1CCCC1 | inactive: 85.5%
11 | CC1(CBr)Cn2c(nc3ccccc3c2=O)S1 (stereo unspecified) | inactive: 100%
12 | O=[As](O)(c1ccccc1Br)c1ccccc1Br | inactive: 97.2%
13 | CC1CCC(C(C)C)C(OP(=O)(Nc2ccccn2)c2ccccc2)C1 (stereo unspecified) | inactive: 100%
14 | Cc1ccc(C(=O)OC2CN3CCC2CC3)cc1 (stereo unspecified) | inactive: 96.5%
15 | Cc1nn(-c2ccccc2)c2c1P(=O)(N1CCOCC1)N(C)C(c1ccccc1)=N2 (stereo unspecified) | inactive: 97.1%
16 | CN(C)C1(CNC(=O)c2ccc(S(C)(=O)=O)cc2)CCCCC1 | inactive: 104%
17 | O=C(/C=C/c1ccccc1)OC1CN2CCC1CC2 (stereo unspecified) | inactive: 102%
18 | O=P1(Nc2ncccn2)COc2ccccc2OC1 | inactive: 107%
19 | Nc1cccc([As](=O)(O)c2ccccc2)c1 | inactive: 86.3%
20 | O=P1(Nc2ccc(Br)cn2)COc2ccccc2OC1 | inactive: 100%
21 | NS(=O)(=O)c1cccc(NC(=O)COC(=O)C(O)(c2ccccc2)c2ccccc2)c1 | inactive: 99.8%
22 | O=[As](O)(c1cccs1)c1cccs1 | inactive: 92.5%
23 | Cc1ccc(OCC(=O)OC2CN3CCC2CC3)cc1 (stereo unspecified) | inactive: 99.6%
24 | O=P(Nc1nccs1)(c1ccccc1)c1nc2ccccc2s1 (stereo unspecified) | inactive: 95.2%
25 | O=P(Nc1nccs1)(Oc1ccccc1)Oc1ccccc1 | inactive: 94.5%
26 | CCOP1(=S)c2c(C)nn(CCC#N)c2N=C(c2ccccc2F)N1C (stereo unspecified) | inactive: 108%

Row | Compound | GFP response vs DMSO
27 | CS(=O)(=O)c1cc([N+](=O)[O-])c2no[n+]([O-])c2c1 | inactive: 101%
28 | Nc1ccccc1[As](=O)(O)c1ccccc1 | inactive: 99.9%
29 | O=C(O)COc1ccc([As](=O)(O)O)cc1[N+](=O)[O-] | inactive: 118%
30 | NC(=O)Nc1ccc([As](=O)(O)O)cc1 | inactive: 90.2%
31 | CCOP1(=S)c2c(C)nn(CCC#N)c2N=C(c2ccc(F)cc2)N1C (stereo unspecified) | inactive: 99.9%
32 | CN(C(=O)Cc1ccccc1)[C@@H]1CC[C@]2(CCCO2)C[C@H]1N1CCCC1 | inactive: 88.2%
33 | N#CCCN(C(=O)COC(=O)C(O)(c1ccccc1)c1ccccc1)c1ccc(F)cc1 | inactive: 105%
34 | CN(C(=O)Cc1ccc(Cl)c(Cl)c1)[C@H]1CC[C@@]2(CCCO2)C[C@@H]1N1CCCC1 | inactive: 92.7%
35 | CN(C)C(=O)c1cc([N+](=O)[O-])cc2c1-c1c(cc([N+](=O)[O-])cc1[N+](=O)[O-])C2=O | inactive: 81.7%
36 | O=[N+]([O-])c1ccc2c(c1)nnn2O | inactive: 105%
37 | O=C(OC1CN2CCC1CC2)c1ccc(Cl)cc1 (stereo unspecified) | inactive: 96.9%
38 | CS(=O)(=O)c1ccc(Cl)c(NC(=O)COC(=O)C(O)(c2ccccc2)c2ccccc2)c1 | inactive: 99.3%
39 | COc1cc(C(=O)NCC2(N3CCOCC3)CCCCC2)cc(Cl)c1OC(C)C | inactive: 97.8%
40 | O=[As](O)(O)c1cccnc1 | inactive: 100%
41 | O=[As](O)(c1cccc(O)c1)c1cccc(O)c1 | inactive: 101%
42 | Cc1cccc(OCC(=O)OC2CN3CCC2CC3)c1 (stereo unspecified) | inactive: 110%
43 | Nc1cccc2c([As](=O)(O)O)cccc12 | inactive: 106%
44 | Cc1ccc(NCCc2c([N+](=O)[O-])cc([N+](=O)[O-])cc2[N+](=O)[O-])cc1 | inactive: 99.3%
45 | CCCOP(=S)(Nc1nc(N)cc(=O)[nH]1)OCCC | inactive: 103%
46 | CCOP(=O)(Nc1cccc2ccccc12)OCC | inactive: 106%
47 | COc1cc(C2NCCC3(OCCO3)C2(C)C)cc(OC)c1OC (stereo unspecified) | inactive: 100%
48 | Cc1c2c(nc3ccccc13)SC(C(Cl)Cl)C2 (stereo unspecified) | inactive: 103%
49 | Cc1cc(=O)[nH]c(N[N+](=O)[O-])n1 | inactive: 96.6%
50 | O=C(OC1CN2CCC1CC2)C12CC3CC(CC(C3)C1)C2 (stereo unspecified) | inactive: 111%
51 | COc1cc(I)ccc1[As](=O)(O)O | inactive: 111%
